In general, Kd refers to a measure of binding affinity in units of concentration. Low values mean tighter binding, high ones weaker binding.

The chains behind the UniProt entries cited, without tags or fusion partners.
UniProt P05067, whole entry: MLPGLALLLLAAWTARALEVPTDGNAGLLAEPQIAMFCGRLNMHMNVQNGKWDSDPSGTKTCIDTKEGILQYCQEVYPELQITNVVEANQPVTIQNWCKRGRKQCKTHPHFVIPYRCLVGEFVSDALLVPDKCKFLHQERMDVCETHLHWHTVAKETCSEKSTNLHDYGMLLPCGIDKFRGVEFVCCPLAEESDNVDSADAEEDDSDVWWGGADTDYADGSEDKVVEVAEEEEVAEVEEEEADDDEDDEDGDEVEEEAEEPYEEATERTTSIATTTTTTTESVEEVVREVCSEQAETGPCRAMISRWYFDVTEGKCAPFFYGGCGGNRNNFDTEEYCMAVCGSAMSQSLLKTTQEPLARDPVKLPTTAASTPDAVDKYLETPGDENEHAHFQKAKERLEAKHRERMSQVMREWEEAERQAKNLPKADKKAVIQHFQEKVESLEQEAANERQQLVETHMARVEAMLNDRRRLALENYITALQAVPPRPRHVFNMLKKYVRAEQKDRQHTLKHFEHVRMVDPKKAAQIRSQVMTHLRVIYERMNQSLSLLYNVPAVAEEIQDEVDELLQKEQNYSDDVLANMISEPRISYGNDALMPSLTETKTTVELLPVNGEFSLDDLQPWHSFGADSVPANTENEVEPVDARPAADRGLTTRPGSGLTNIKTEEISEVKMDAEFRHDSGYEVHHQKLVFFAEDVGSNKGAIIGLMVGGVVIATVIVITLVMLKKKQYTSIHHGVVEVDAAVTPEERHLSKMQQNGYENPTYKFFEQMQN

The experiment addresses Amyloid-beta precursor protein (Homo sapiens, UniProt P05067). The experiment in a line: Binding affinity to amyloid beta (1 to 42) (unknown origin) aggregates.

Structures are written as SMILES.

Regarding `Cc1ccc2c(c1)sc(-c1ccc(N(C)C)cc1)[n+]2C`, the Kd came out at 1.9 µM.

For the origin of these results see ChEMBL document CHEMBL5137055, “Near-Infrared Fluorescent Probes as Imaging and Theranostic Modalities for Amyloid-Beta and Tau Aggregates in Alzheimer's Disease” (J Med Chem, 2022).
